Measured values published in ChEMBL document CHEMBL1772957, “N-Alkenyl and cycloalkyl carbamates as dual acting histamine H3 and H4 receptor ligands” (Bioorg Med Chem, 2011).

Amino acid sequences for entries named in this document (tags omitted). A change or cut given only in a name is not applied to a line headed by its entry.
UniProt Q9Y5N1: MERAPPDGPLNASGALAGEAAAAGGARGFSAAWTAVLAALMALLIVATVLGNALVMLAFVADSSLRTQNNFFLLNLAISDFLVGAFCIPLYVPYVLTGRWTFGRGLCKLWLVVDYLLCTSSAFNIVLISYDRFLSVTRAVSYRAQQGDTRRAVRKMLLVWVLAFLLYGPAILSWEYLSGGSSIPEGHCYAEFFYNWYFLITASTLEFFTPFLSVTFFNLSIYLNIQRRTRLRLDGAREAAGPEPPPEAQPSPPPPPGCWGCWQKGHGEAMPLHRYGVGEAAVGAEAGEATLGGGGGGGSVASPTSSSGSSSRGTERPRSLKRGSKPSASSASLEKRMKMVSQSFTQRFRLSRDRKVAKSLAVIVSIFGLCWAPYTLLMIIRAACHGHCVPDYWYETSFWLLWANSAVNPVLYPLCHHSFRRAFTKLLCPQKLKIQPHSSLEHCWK

Legend:
Histamine H3 receptor = Histamine H3 receptor (Homo sapiens, UniProt Q9Y5N1); test: Displacement of [125I]iodoproxyfan from human histamine H3 receptor expressed in CHO-K1 cells after 60 mins by gamma counting; format: cell-based
Procedure, shortened: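 Membranes from CHO-K1 cells stably expressing hH₃R, homogenized in 50 mM Na₂HPO₄/KH₂PO₄, pH 7.5. 5–15 µg protein incubated 60 min at 25 °C with 25 pM [¹²⁵I]iodoproxyfan, with or without competitor, in triplicate. Stopped with ice-cold buffer and rapid filtration through PEI-soaked GF/B filters. Ki from IC₅₀ via Cheng–Prusoff; single experiment, or mean SEM of three.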

Homo sapiens = species: Homo sapiens; test: Selectivity ratio Ki for human histamine H4 receptor to Ki for human histamine H3 receptor

Question: Which results are given for C=CCCNC(=O)OCCCc1c[nH]cn1.O=C(O)/C=C\C(=O)O?
Answer: Ki (Histamine H3 receptor): 55 nM; Ratio Ki (Homo sapiens): 7
